# Measurements reported in patent US10828349B2, “Treatment of microbial infections” (NATIONAL UNIVERSITY OF IRELAND, GALWAY, priority 2011, dated 2020).
# Assay: effect of milk pasteurisation heating on the enzymatic components
# Type: physicochemical
# Settings: held 15-600 seconds; activity read by E. coli total viable counts in milk after 24 hrs at 37° C.
# Protocol: An attempt was made to determine the effects of the milk pasteurisation process on the enzymatic components, which can be used to produce the reactive oxygen species of the composition of the present invention. Working concentrations of the enzymes were heated in 50 μl volumes to 72° C. and held for 15, 30, 60, 300 or 600 seconds.
# Appropriate concentrations of these aliquots were then transferred to milk containing the necessary components of the system and ˜10^8 cells/ml E. coli. Total viable counts were performed after 24 hrs incubation at 37° C. This allowed the determination of whether the enzymes were still active after heating.
substance,measurement,value
Glucose oxidase,enzyme activity after heating to 72° C.,demonstrated activity after 300 seconds heating
